From ChEMBL document CHEMBL4433236, “Synthesis and structure activity relationships of a series of 4-amino-1H-pyrazoles as covalent inhibitors of CDK14” (Bioorg Med Chem Lett, 2019)

Chains of the proteins cited; added tags and fusions are not shown. Lines headed by an entry give the natural chain unless they say otherwise; changes in a name come on top.
UniProt O94921: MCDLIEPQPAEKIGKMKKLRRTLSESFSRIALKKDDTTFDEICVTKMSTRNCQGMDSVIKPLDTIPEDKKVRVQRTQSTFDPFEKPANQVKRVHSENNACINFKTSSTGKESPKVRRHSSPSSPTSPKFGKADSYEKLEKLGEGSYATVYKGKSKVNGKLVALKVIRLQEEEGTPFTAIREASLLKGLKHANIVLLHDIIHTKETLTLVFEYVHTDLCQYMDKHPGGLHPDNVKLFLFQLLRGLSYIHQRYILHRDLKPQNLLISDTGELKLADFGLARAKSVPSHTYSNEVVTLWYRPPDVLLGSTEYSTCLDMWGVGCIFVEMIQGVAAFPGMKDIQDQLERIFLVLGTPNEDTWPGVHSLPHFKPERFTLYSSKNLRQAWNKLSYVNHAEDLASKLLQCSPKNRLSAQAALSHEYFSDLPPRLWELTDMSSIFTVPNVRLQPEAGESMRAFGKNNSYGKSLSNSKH

Biological target: Cyclin-dependent kinase 14 (Homo sapiens, UniProt O94921)
Settings: 1 uM

Q: How did the inhibition turn out when `CN(C)C/C=C/C(=O)Nc1cccc(S(=O)(=O)N2CCC(NC(=O)c3n[nH]cc3NC(=O)c3c(Cl)cc(Cl)cc3Cl)CC2)c1` was run?
A: > 75%
